Laboratory results: patent US20250195530A1, “POLQ INHIBITORS” (ASTRAZENECA AB, priority 2022, published 2025)

Sequences of proteins named here, by UniProt entry; tags and fusion partners are left off. Residues count along the entry.
UniProt O75417, 1780-2590: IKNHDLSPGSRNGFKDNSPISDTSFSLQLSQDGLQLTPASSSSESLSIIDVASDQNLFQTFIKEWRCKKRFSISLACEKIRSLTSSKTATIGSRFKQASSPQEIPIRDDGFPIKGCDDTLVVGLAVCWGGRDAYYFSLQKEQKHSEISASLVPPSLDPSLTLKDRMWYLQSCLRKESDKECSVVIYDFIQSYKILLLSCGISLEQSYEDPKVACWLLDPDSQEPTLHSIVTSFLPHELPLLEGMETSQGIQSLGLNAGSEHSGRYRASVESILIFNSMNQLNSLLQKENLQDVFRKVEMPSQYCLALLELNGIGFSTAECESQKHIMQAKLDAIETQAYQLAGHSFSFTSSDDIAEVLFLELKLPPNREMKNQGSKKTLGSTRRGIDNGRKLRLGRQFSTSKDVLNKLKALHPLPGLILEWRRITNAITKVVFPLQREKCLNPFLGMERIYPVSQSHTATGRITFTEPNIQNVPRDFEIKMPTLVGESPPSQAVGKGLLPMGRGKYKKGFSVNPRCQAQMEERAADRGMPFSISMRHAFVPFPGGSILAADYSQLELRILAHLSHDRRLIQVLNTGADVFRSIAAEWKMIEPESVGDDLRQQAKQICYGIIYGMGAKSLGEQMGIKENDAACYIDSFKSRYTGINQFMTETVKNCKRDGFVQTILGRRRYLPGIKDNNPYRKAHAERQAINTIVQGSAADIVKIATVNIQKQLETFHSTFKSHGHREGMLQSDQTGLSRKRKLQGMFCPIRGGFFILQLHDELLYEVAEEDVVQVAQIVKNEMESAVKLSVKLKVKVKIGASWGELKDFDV

Target: isolated polymerase domain (I1780-V2590) of DNA polymerase theta (Polθ) (Homo sapiens (Human), UniProt O75417)
Experiment: biochemical

| IC50 [nM] | SMILES |
| --- | --- |
| 15.8 | CC1(Oc2ncnc3c2nc(-c2ccc(OCCN4CCNCC4)cc2Cl)n3Cc2ccc(F)cn2)CC1 [Example T350, 8-(2-chloro-4-(2-(piperazin-1-yl)ethoxy)phenyl)-9-((5-fluoropyridin-2-yl)methyl)-6-(1-methylcyclopropoxy)-9H-purine] |
| 3.98 | Cc1ccnc(Cn2c(-c3ccc(O[C@@H]4CCNC4=O)cc3Cl)nc3c(OC4(C)CC4)ncnc32)c1 [Example T186, (R)-3-(3-chloro-4-(6-(1-methylcyclopropoxy)-9-((4-methylpyridin-2-yl)methyl)-9H-purin-8-yl)phenoxy)pyrrolidin-2-one] |
| 7.94 | Cc1ccnc(Cn2c(-c3ccc(N4CCOC4=O)cc3Cl)nc3c(OC4(C)CC4)ncnc32)c1 [Example T96, 3-(3-chloro-4-(6-(1-methylcyclopropoxy)-9-((4-methylpyridin-2-yl)methyl)-9H-purin-8-yl)phenyl)oxazolidin-2-one] |
| 5.01 | CC1(Oc2ncnc3c2nc(-c2ccc(OCCCN4CC(O)C4)cc2Cl)n3Cc2cc(C(F)(F)F)ccn2)CC1 [Example T425, 1-(3-(3-chloro-4-(6-(1-methylcyclopropoxy)-9-((4-(trifluoromethyl)pyridin-2-yl)methyl)-9H-purin-8-yl)phenoxy)propyl)azetidin-3-ol] |
| 316 | CC(Cc1ccccn1)n1c(-c2ccc(OCCN3CCNCC3)cc2Cl)nc2c(OC3(C)CC3)ncnc21 (single isomer, unassigned) [Example S8, 8-(2-chloro-4-(2-(piperazin-1-yl)ethoxy)phenyl)-6-(1-methylcyclopropoxy)-9-(1-(pyridin-2-yl)propan-2-yl)-9H-purine] |
| 7.94 | Cc1ccnc(Cn2c(-c3ccc(OCCN4CC[C@@H](O)C4=O)cc3Cl)nc3c(OC4(C)CC4)ncnc32)c1 [Example T474, (R)-1-(2-(3-chloro-4-(6-(1-methylcyclopropoxy)-9-((4-methylpyridin-2-yl)methyl)-9H-purin-8-yl)phenoxy)ethyl)-3-hydroxypyrrolidin-2-one] |
| 6.31 | Cc1ccnc(Cn2c(-c3ccc(OCC(N)=O)cc3Cl)nc3c(OC4(C)CC4)ncnc32)c1 [Example T61, 2-(3-chloro-4-(6-(1-methylcyclopropoxy)-9-((4-methylpyridin-2-yl)methyl)-9H-purin-8-yl)phenoxy)acetamide] |
| 5.01 | Cc1ccnc(Cn2c(-c3ccc(OCCCF)cc3Cl)nc3c(OC4(C)CC4)ncnc32)c1 [Example T108, 8-(2-chloro-4-(3-fluoropropoxy)phenyl)-6-(1-methylcyclopropoxy)-9-((4-methylpyridin-2-yl)methyl)-9H-purine] |
| 6.31 | Cc1cnc(Cn2c(-c3ccc(OCCN4CCCC4)cc3Cl)nc3c(OC4(C)CC4)ncnc32)s1 [Example T239, 2-((8-(2-chloro-4-(2-(pyrrolidin-1-yl)ethoxy)phenyl)-6-(1-methylcyclopropoxy)-9H-purin-9-yl)methyl)-5-methylthiazole] |
| 6.31 | Cc1ccnc(Cn2c(-c3ccc(OCC(=O)N4CC[C@@H](O)C4)cc3Cl)nc3c(OC4(C)CC4)ncnc32)c1 [Example T473, (R)-2-(3-chloro-4-(6-(1-methylcyclopropoxy)-9-((4-methylpyridin-2-yl)methyl)-9H-purin-8-yl)phenoxy)-1-(3-hydroxypyrrolidin-1-yl)ethan-1-one] |
| 6.31 | CC1(Oc2ncnc3c2nc(-c2ccc(CC(N)=O)cc2Cl)n3Cc2ccccc2)CC1 [Example T48, 2-(4-(9-benzyl-6-(1-methylcyclopropoxy)-9H-purin-8-yl)-3-chlorophenyl)acetamide] |
| 10 | CC1(Oc2ncnc3c2nc(-c2cccc(C(=O)O)c2Cl)n3Cc2cccc(Cl)c2)CC1 [Example T12, 2-chloro-3-(9-(3-chlorobenzyl)-6-(1-methylcyclopropoxy)-9H-purin-8-yl)benzoic acid] |
| 6.31 | CC1(Oc2ncnc3c2nc(-c2cccc(OCCCCCC(=O)O)c2Cl)n3Cc2cccc(Cl)c2)CC1 [Example T440, 6-(2-chloro-3-(9-(3-chlorobenzyl)-6-(1-methylcyclopropoxy)-9H-purin-8-yl)phenoxy)hexanoic acid] |
| 3.98 | Cc1ccnc(Cn2c(-c3ccc(CN4CCC(O)CC4)cc3Cl)nc3c(OC4(C)CC4)ncnc32)c1 [Example T508, 1-(3-chloro-4-(6-(1-methylcyclopropoxy)-9-((4-methylpyridin-2-yl)methyl)-9H-purin-8-yl)benzyl)piperidin-4-ol] |
| 6.31 | CC(=O)Nc1ccc(-c2nc3c(OC4(C)CC4)ncnc3n2Cc2cc(C)ccn2)c(Cl)c1 [Example T53, N-(3-chloro-4-(6-(1-methylcyclopropoxy)-9-((4-methylpyridin-2-yl)methyl)-9H-purin-8-yl)phenyl)acetamide] |
| 15.8 | CO[C@H]1CCN(C(=O)c2ccc(-c3nc4c(OC5(C)CC5)ncnc4n3Cc3cc(C)ccn3)c(Cl)c2)C1 [Example T465, (S)-(3-chloro-4-(6-(1-methylcyclopropoxy)-9-((4-methylpyridin-2-yl)methyl)-9H-purin-8-yl)phenyl)(3-methoxypyrrolidin-1-yl)methanone] |

| IC50 [nM] | SMILES |
| --- | --- |
| 7.94 | Cc1ccccc1Cn1c(-c2ccc(CC(N)=O)cc2Cl)nc2c(OC3(C)CC3)ncnc21 [Example T101, 2-(3-chloro-4-(9-(2-methylbenzyl)-6-(1-methylcyclopropoxy)-9H-purin-8-yl)phenyl)acetamide] |
| 25.1 | Cc1ccnc(Cn2c(-c3ccc(OCC4COC4)cc3Cl)nc3c(OC4(C)CC4)ncnc32)c1 [Example T193, 8-(2-chloro-4-(oxetan-3-ylmethoxy)phenyl)-6-(1-methylcyclopropoxy)-9-((4-methylpyridin-2-yl)methyl)-9H-purine] |
| 6.31 | Cc1ccnc(Cn2c(-c3ccc(OCC(F)CO)cc3Cl)nc3c(OC4(C)CC4)ncnc32)c1 (single isomer, unassigned) [Example T109, 3-(3-chloro-4-(6-(1-methylcyclopropoxy)-9-((4-methylpyridin-2-yl)methyl)-9H-purin-8-yl)phenoxy)-2-fluoropropan-1-ol] |
| 5.01 | Cc1ccnc(Cn2c(-c3ccc(OC4CCNCC4)cc3Cl)nc3c(OC4(C)CC4)ncnc32)c1 [Example T354, 8-(2-chloro-4-(piperidin-4-yloxy)phenyl)-6-(1-methylcyclopropoxy)-9-((4-methylpyridin-2-yl)methyl)-9H-purine] |
| 6.31 | CC(CCOc1ccc(-c2nc3c(OC4(C)CC4)ncnc3n2Cc2cccc(C(C)(F)F)c2)c(Cl)c1)C(=O)O (single isomer, unassigned) [Example T545, 4-(3-chloro-4-(9-(3-(1,1-difluoroethyl)benzyl)-6-(1-methylcyclopropoxy)-9H-purin-8-yl)phenoxy)-2-methylbutanoic acid] |
| 7.94 | Cc1ccnc(Cn2c(-c3ccc(C(=O)NC[C@H](C)O)cc3Cl)nc3c(OC4(C)CC4)ncnc32)c1 [Example T218, (S)-3-chloro-N-(2-hydroxypropyl)-4-(6-(1-methylcyclopropoxy)-9-((4-methylpyridin-2-yl)methyl)-9H-purin-8-yl)benzamide] |
| 6.31 | Cc1cnc(Cn2c(-c3ccc(OCCN4CCNCC4)cc3Cl)nc3c(OC4(C)CC4)ncnc32)cc1C [Example T596, 8-(2-chloro-4-(2-(piperazin-1-yl)ethoxy)phenyl)-9-((4,5-dimethylpyridin-2-yl)methyl)-6-(1-methylcyclopropoxy)-9H-purine] |
| 2.51 | CC1(Oc2ncnc3c2nc(-c2ccc(N4CCNCC4)cc2Cl)n3Cc2ccccc2)CC1 [Example C7, 9-benzyl-8-(2-chloro-4-(piperazin-1-yl)phenyl)-6-(1-methylcyclopropoxy)-9H-purine] |
| 10 | CC1(Oc2ncnc3c2nc(-c2ccc(OCCC(=O)O)cc2Cl)n3Cc2ccc(Cl)c(Cl)c2)CC1 [Example T84, 3-(3-chloro-4-(9-(3,4-dichlorobenzyl)-6-(1-methylcyclopropoxy)-9H-purin-8-yl)phenoxy)propanoic acid] |
| 2.51 | CC(CCOc1ccc(-c2nc3c(OC4(C)CC4)ncnc3n2Cc2cccc(C(C)(F)F)c2)c(Cl)c1)C(=O)O (racemic) [Example T544, 4-(3-chloro-4-(9-(3-(1,1-difluoroethyl)benzyl)-6-(1-methylcyclopropoxy)-9H-purin-8-yl)phenoxy)-2-methylbutanoic acid] |
| 12.6 | Cc1ccnc(Cn2c(-c3ccc(C(=O)NCCCF)cc3Cl)nc3c(OC4(C)CC4)ncnc32)c1 [Example T191, 3-chloro-N-(3-fluoropropyl)-4-(6-(1-methylcyclopropoxy)-9-((4-methylpyridin-2-yl)methyl)-9H-purin-8-yl)benzamide] |
| 158 | Cc1cc(Cn2c(-c3ccc(CC(N)=O)cc3Cl)nc3c(OC4(C)CC4)ncnc32)ccn1 [Example T58, 2-(3-chloro-4-(6-(1-methylcyclopropoxy)-9-((2-methylpyridin-4-yl)methyl)-9H-purin-8-yl)phenyl)acetamide] |
| 3.98 | CC1(Oc2ncnc3c2nc(-c2ccc(OCc4nc(C(=O)O)cs4)cc2Cl)n3Cc2cccc(Cl)c2)CC1 [Example T250, 2-((3-chloro-4-(9-(3-chlorobenzyl)-6-(1-methylcyclopropoxy)-9H-purin-8-yl)phenoxy)methyl)thiazole-4-carboxylic acid] |
| 2.51 | CC1(Oc2ncnc3c2nc(-c2ccc(OCCCN4CC(O)C4)cc2Cl)n3Cc2cc(Cl)ccn2)CC1 [Example T347, 1-(3-(3-chloro-4-(9-((4-chloropyridin-2-yl)methyl)-6-(1-methylcyclopropoxy)-9H-purin-8-yl)phenoxy)propyl)azetidin-3-ol] |
| 7.94 | CC1(Oc2ncnc3c2nc(-c2ccc(OCCC(C)(C)C(=O)O)cc2Cl)n3Cc2cc(Cl)ccc2F)CC1 [Example U46, 4-(3-chloro-4-(9-(5-chloro-2-fluorobenzyl)-6-(1-methylcyclopropoxy)-9H-purin-8-yl)phenoxy)-2,2-dimethylbutanoic acid] |

| SMILES | IC50 [nM] |
| --- | --- |
| CC(C)(C)Oc1cccc2c1nc(-c1ccc(OCCN3CCNCC3)cc1Cl)n2Cc1cccc(Cl)c1 [Example T608, 4-(tert-butoxy)-2-(2-chloro-4-(2-(piperazin-1-yl)ethoxy)phenyl)-1-(3-chlorobenzyl)-1H-benzo[d]imidazole] | 12.6 |
